In the library only some 16% were active in any assay of this set; here they are far more common.
TDP1 inh: blocks human tyrosyl-DNA phosphodiesterase 1 | AID 485290 | Potency, µM (doses to about 130 µM), without a hit: at the top dose activity change, negative = inhibition, actives largely listed as inhibitors | recombinant TDP1, AlphaScreen DNA substrate cleavage | Q9NUW8 | actives 0.28% (n = 350,000); also: potency is read from the fitted curve at half-maximal effect; % is scaled to controls: 0 for no effect and ±100 for the full control effect; nearly all actives have a fitted effect of over 40% in size
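Recombinant human Tdp1 (E. coli-expressed, 1 nM final) preincubated with compounds 15 min at room temperature, then 5'-biotin/3'-phosphotyrosine-FITC DNA substrate (15 nM final) added for 5 min. AlphaScreen beads (10 ug/ml final) added 10 min; cleavage lowers signal.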
miR-21 reporter: raises the signal of a miR-21 reporter; AID 2288; 340,000 tested, under 10 active; Potency, µM (doses to about 38.3 µM), inactives show at the top dose reporter change, positive = more light; HeLa miR-21 FLuc reporter, luciferase, 48 h; active = well fitted rising curve with a large enough effect; inconclusive = small, poorly fitted or top-dose-only effect; inactive = no such curve, though single readings can be large or run the other way;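 note: % of control where 0% means no effect; miR-21 action dims this reporter so a rising signal means less miR-21 action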
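HeLa cells endogenously expressing miR-21, stably carrying CMV-driven firefly luciferase with a downstream miR-21 binding site, 2000 cells/well. Titrations up to approximately 40 uM, 48 hours; luciferase luminescence read.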
TDP1 cell CPT: DT40-hTDP1 cell growth loss with CPT; chicken DT40 Tdp1-/-;hTDP1 cells + 20 nM CPT, ATP luminescence, 48 h; Potency, µM (highest dose often 46.2 µM), for the others: at the top dose activity change, negative = growth inhibition, hits mostly inhibitors; actives 12% (n = 420,000); also: potency is read from the fitted curve at half-maximal effect; % is scaled to controls: 0 for no effect and ±100 for the full control effect; nearly all actives have a fitted effect of over 55% in size
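Chicken DT40 Tdp1-/- cells complemented with human TDP1, 400 cells/well, exposed to compounds plus 20 nM camptothecin for at least 48 h at 37 C; viability read as ATP content by CellTiter-Glo luminescence.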
TDP1 cell noCPT: qHTS for Inhibitors of human tyrosyl-DNA phosphodiesterase 1 (TDP1): qHTS in cells in absence of CPT | actives 15% (n = 420,000) | Potency, µM (highest dose often 46.2 µM), inactives show at the top dose activity change, negative = growth inhibition, actives largely listed as inhibitors | DT40 Tdp1-/- hTDP1 cells, no CPT, ATP luminescence, 48 h; also: potency is read from the fitted curve at half-maximal effect; % is scaled to controls: 0 for no effect and ±100 for the full control effect; nearly all actives have a fitted effect of over 55% in size
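Camptothecin absent (DMSO only). Human TDP1-complemented DT40 knockout cells, 400 cells/well, 37 °C for minimum 48 hr; ATP measured via CellTiter-Glo, 30 min dark incubation, luminescence.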
uPA surface inh: cell surface uPA generation inhibition | cell surface uPA generation assay, qHTS | actives 0.31% (n = 330,000) | Potency, µM (highest dose often 38.3 µM), without a hit: at the top dose activity change, negative = inhibition, usual class: inhibitors; active = well fitted inhibition curve with a large enough effect; inconclusive = small, poorly fitted or top-dose-only effect; inactive = no such curve, though single readings can be large or run the other way; tested in mouse RAW 264.7 cells; also: potency is read from the fitted curve at half-maximal effect; % is scaled to controls: 0 for no effect and ±100 for the full control effect; nearly all actives have a fitted effect of over 55% in size
An asterisk follows results filed as active; [ ] = another dose, or the depositor's remark. Unless noted, calls follow the shape of the dose curve; as a rule, active = well fitted curve in the direction sought with a large enough effect; inconclusive = small, poorly fitted or top-dose-only effect, or another doubt; inactive = no such curve, though single readings can be large; an effect the other way counts as inactive or inconclusive.

For CC(=O)c1sc(NC(=O)CN2C(=O)NC3(CCCC3)C2=O)nc1-c1ccccc1 the results were TDP1 inh 2%, TDP1 cell CPT 1%, TDP1 cell noCPT -11% and uPA surface inh -1%.
O=C(O)CCNc1nc(-c2ccccc2)c2cc(Br)ccc2n1 was read as miR-21 reporter -3%, TDP1 cell CPT -2%, TDP1 cell noCPT -11% and uPA surface inh -4%.
For COc1ccc(C(=O)/C=C/c2ccccc2)cc1 the results were TDP1 inh 8%[56.1 µM], TDP1 cell CPT inconclusive and TDP1 cell noCPT 23µM*.
Screening COc1ccc(C(=O)/C=C/c2ccc(N3CCCCC3)c([N+](=O)[O-])c2)cc1 returned TDP1 inh 4%, miR-21 reporter -6%, TDP1 cell CPT inconclusive, TDP1 cell noCPT inconclusive and uPA surface inh 16%.
Screening CCOC(=O)Nc1ccc(C(=O)/C=C/c2ccccc2)cc1 returned TDP1 inh 1%, miR-21 reporter -30%, TDP1 cell CPT 5.2µM*, TDP1 cell noCPT 2.6µM* and uPA surface inh -8%.
COc1ccc(C(=O)/C=C/c2ccc(N3CCCCC3)c([N+](=O)[O-])c2)c(OC)c1 was read as TDP1 inh 11%, miR-21 reporter -11%, TDP1 cell CPT inconclusive, TDP1 cell noCPT 21µM* and uPA surface inh -5%.
Screening COc1ccc(OC)c(N/C=C/C(=O)c2ccccc2)c1 returned miR-21 reporter 25%, TDP1 cell CPT -2%, TDP1 cell noCPT -39% and uPA surface inh -14%.
Screening COc1ccc(C(=O)/C=C/c2ccc(O)cc2)cc1 returned TDP1 inh 6%, miR-21 reporter -37%, TDP1 cell CPT -22%, TDP1 cell noCPT inconclusive and uPA surface inh inconclusive.
CCOC(=O)Nc1ccc(Oc2ccccc2)cc1 was read as TDP1 inh 1%, miR-21 reporter -47%, TDP1 cell CPT inconclusive, TDP1 cell noCPT inconclusive and uPA surface inh -4%.
`COc1ccc(OC)c(C(=O)/C=C/c2ccccc2C(F)(F)F)c1` gave TDP1 inh 8%, miR-21 reporter 27%, TDP1 cell CPT 26µM*, TDP1 cell noCPT 21µM* and uPA surface inh -16%.
COc1ccc2oc(C(=O)NC3CCCCC3)c(C)c2c1 was read as TDP1 inh 2%, miR-21 reporter -66%, TDP1 cell CPT inconclusive, TDP1 cell noCPT inconclusive and uPA surface inh 1%.
`CCCCN(C(=O)c1cc(S(=O)(=O)N2CCCCC2)ccc1Cl)c1c(N)n(CC(C)C)c(=O)[nH]c1=O` gave TDP1 cell CPT 2%, TDP1 cell noCPT -15% and uPA surface inh 2%.
`Cc1ccccc1-n1nc(CO)c(C(=O)NCc2cccnc2)n1` gave TDP1 inh 5%, miR-21 reporter 0%, TDP1 cell CPT -10% and TDP1 cell noCPT -2%.
Screening O=C(/C=C/c1cccnc1)c1ccc([N+](=O)[O-])cc1 returned TDP1 inh 5%, miR-21 reporter inconclusive, TDP1 cell CPT -30%, TDP1 cell noCPT inconclusive and uPA surface inh -6%.
Screening O=C(C=Cc1ccccc1)c1ccc([N+](=O)[O-])cc1 returned TDP1 cell CPT inconclusive, TDP1 cell noCPT 18µM* and uPA surface inh -1%.
`COc1ccc(Cc2nnc(NCCO)[nH]c2=O)cc1` gave TDP1 inh 1%, miR-21 reporter 0%, TDP1 cell CPT -1%, TDP1 cell noCPT 20% and uPA surface inh 4%.
COc1ccc(Cc2nnc(NCCO)[nH]c2=O)cc1OC was read as miR-21 reporter -4%, TDP1 cell CPT 16µM*, TDP1 cell noCPT 8.2µM* and uPA surface inh 0%.
For COc1ccc(Cc2nnc(N/N=C/c3ccc(O)cc3)[nH]c2=O)cc1OC the results were TDP1 inh 11%, miR-21 reporter inconclusive, TDP1 cell CPT 1µM*, TDP1 cell noCPT 0.65µM* and uPA surface inh -9%.
For COc1ccc(N(C(C)C(=O)NCCSCc2cccc(Cl)c2)S(C)(=O)=O)cc1 (stereo not drawn) the results were miR-21 reporter 9%, TDP1 cell CPT inconclusive, TDP1 cell noCPT inconclusive and uPA surface inh 5%.

2 compounds drawn at random from the list so far:
For COc1ccc(N(C(C)C(=O)NCCSCc2cccc(Cl)c2)S(C)(=O)=O)cc1 (stereo not drawn) the results were miR-21 reporter 9%, TDP1 cell CPT inconclusive, TDP1 cell noCPT inconclusive and uPA surface inh 5%.
`Cc1ccccc1-n1nc(CO)c(C(=O)NCc2cccnc2)n1` gave TDP1 inh 5%, miR-21 reporter 0%, TDP1 cell CPT -10% and TDP1 cell noCPT -2%.
